Patent US10736883B2, “Triazole furan compounds as agonists of the APJ receptor” (AMGEN INC., priority 2016, dated 2020)

Tests used:
[1] = cited from earlier work
[2] = target: human APJ-AT1R (angiotensin Type 1) double stable CHO cell line (Homo sapiens (Human), UniProt P30556+P35414); test: IP1 accumulation (TR-FRET), AngII concentration series with fixed pyrapelin-13, APJ-AT1R double stable CHO cells; format: cell-based; settings: different concentrations of AngII, fixed concentration of pyrapelin-13, APJ and AT1R co-expressed
[3] = target: human APJ receptor expressed in the CHO cell line (Homo sapiens (Human), UniProt P35414); test: IP1 accumulation (TR-FRET), AngII concentration series with fixed pyrapelin-13, APJ CHO cells; format: cell-based; settings: different concentrations of AngII, fixed concentration of pyrapelin-13, human APJ receptor expressed alone

Substance	plasma half-life [1]	positive cooperativity on AT1R (IP1 accumulation) [2]	positive cooperativity (IP1 accumulation) [3]
Apelin-13	< 5 min		
pyroglutamated apelin-13 [pyrapelin-13]		induces the positive cooperativity on the AT1R	no positive cooperativity observed
